# Yeast mating assay B: variants of the scFv Ab-14

The target is the same throughout: PDVDLGDISGINAS, from the HR2 region of SARS-CoV-2 spike.

Ab-14 is the parent antibody, in scFv form: VH, then a (GGGGS)3 linker, then VL. The light chain is unchanged in all variants.
VH: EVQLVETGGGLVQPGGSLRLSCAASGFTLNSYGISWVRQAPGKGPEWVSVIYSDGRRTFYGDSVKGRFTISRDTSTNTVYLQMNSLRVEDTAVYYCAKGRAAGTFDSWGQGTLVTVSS
VL: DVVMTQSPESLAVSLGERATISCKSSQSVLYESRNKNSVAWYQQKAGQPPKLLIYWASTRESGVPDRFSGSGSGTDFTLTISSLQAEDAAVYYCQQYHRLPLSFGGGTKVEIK

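These sequences belong to a second round, designed from the earlier measurements on random variants of the parent. Their group label is 14H_En_Gibbs (En: ensemble of fine-tuned language models; Gibbs: Gibbs sampling). AlphaSeq pools MATa yeast showing the antibodies with MATalpha yeast showing the peptide. Mating (16 h, 30 °C) was followed by selection of diploids and sequencing of their barcodes. Scores were corrected for input abundance and mapped to Kd with protein pairs of known affinity run in the same pool. There are six technical replicates.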

The parent's heavy chain CDRs are GFTLNSYGIS, VIYSDGRRTFYGDSVK, GRAAGTFDS; each variant's own CDRs replace them letter for letter.
Numbers give log10(Kd / nM), so 0 is 1 nM and 3 is 1 µM. Smaller is tighter.
Averages over replicates are reported, and they cover detected replicates only.
Where no diploid with the target was found in that replicate, the entry reads "n.d.": below detection, most likely a poor binder, though not proof of it.
Values of this round are not directly comparable with the first-round values of the same sequences.
Three control strains display no target. For all heavy chain designs, 1% of the pairings with them gave a signal, with a median of 2.08 and one signal in twenty below 0.84, so weak values seen in few replicates may be background. Also given: how often the same scFv was detected with the empty control strains, with their mean in brackets.
The authors averaged sequences with at least three values out of six and counted those with two or fewer as poor binders.

CDR-H1 | CDR-H2 | CDR-H3 | log10 Kd, replicates | mean, log10 nM | signal with controls
GFNLDEYGIS | VIYADGGRVAYADNVK | GLVGKGGDL | 2.63 / 1.27 / 1.50 / n.d. / 1.29 / 1.77 | 1.69 | 0 of 18
GFDLDEYGIS | VIYADGMRTAYQQKVK | GRETDTNVV | n.d. / n.d. / n.d. / n.d. / n.d. / n.d. | n.d. | 1 of 18 (1.64)
GFDLQEIGIS | VIYADGTRQAYSEKVK | GQLAGFLVD | n.d. / n.d. / n.d. / n.d. / n.d. / n.d. | n.d. | 0 of 18
GFNLDEVGIS | VIYADGSRVAYVDNVK | GTVDAVGFV | n.d. / n.d. / n.d. / n.d. / n.d. / n.d. | n.d. | 0 of 18
GFDLDEYGVS | VIYADGERTFYQDKVK | GTHGGTRDL | 1.57 / 2.53 / 2.05 / 2.94 / 2.12 / 2.60 | 2.30 | 0 of 18
GFSIDEYGIS | VIYADGVRQAYQDSVK | GQIGGTFNY | -0.43 / -0.41 / -0.29 / -0.32 / -0.51 / -0.23 | -0.37 | 1 of 18 (2.21)
GFDIEEYGIS | VIYADGMRQAYLDKVK | GNNGSSGLF | n.d. / 4.79 / n.d. / n.d. / n.d. / n.d. | 4.79 | 0 of 18
GSSLDEYGIS | VIYADGQRVQYADTVK | GIQGGNVDV | n.d. / n.d. / n.d. / n.d. / n.d. / n.d. | n.d. | 1 of 18 (1.79)
GFDLEEMGIS | VIYADGARTVYTNSVK | GSFGDQMNV | n.d. / n.d. / n.d. / n.d. / n.d. / n.d. | n.d. | 0 of 18
GFDLMEYGIS | VIYADGMRQYYANKFK | GGISDSGLI | 0.19 / -0.18 / -0.50 / -0.04 / 0.12 / 0.87 | 0.08 | 0 of 18
GFSLDEYGIS | VIYADGLRTQYHNKVK | GLQGGFFDQ | n.d. / n.d. / n.d. / n.d. / n.d. / n.d. | n.d. | 0 of 18
GYDLNEYGIS | VIYADGRRAATINQVK | GSNSDTFSL | n.d. / n.d. / n.d. / n.d. / n.d. / n.d. | n.d. | 0 of 18
GFVLQEYGIS | VIYADGMRTAYAEDFK | GVTGGNLHI | n.d. / n.d. / n.d. / n.d. / n.d. / 2.38 | 2.38 | 0 of 18
GFQLNEYGIS | VIYADGTRTAYADSVK | GAYDTVAVL | n.d. / n.d. / n.d. / n.d. / n.d. / n.d. | n.d. | 1 of 18 (2.13)
GFGIGEYGIS | VIYADGRRTFYSDDVK | GNMIVAGVD | 1.02 / 1.11 / 1.52 / 1.81 / 1.78 / 1.13 | 1.40 | 0 of 18
GFNLDEEGIS | VIYADGVRMSYTDSVK | GYLDGYITD | n.d. / n.d. / n.d. / n.d. / n.d. / n.d. | n.d. | 0 of 18
GMDLNEYGIS | VIYADGRRTAYINQVK | GKQSMIVSH | n.d. / n.d. / n.d. / n.d. / n.d. / n.d. | n.d. | 0 of 18
GFDLNEYGIS | VIYADGRRYHYQDSVK | GNVVGSVMY | n.d. / n.d. / n.d. / n.d. / n.d. / n.d. | n.d. | 1 of 18 (1.18)
GDDLDEVGIS | VIYADGVRNQYIQSVK | GHVGGTFDY | n.d. / n.d. / n.d. / n.d. / n.d. / n.d. | n.d. | 0 of 18
GFKLDEYGIS | VIYADGKRTAYADEVK | GGGTTDRGI | n.d. / n.d. / n.d. / n.d. / n.d. / n.d. | n.d. | 0 of 18
GFDLAEYGIS | VIYADGMRNAYATNVK | GYFGGTVMY | n.d. / n.d. / n.d. / n.d. / n.d. / n.d. | n.d. | 0 of 18
GFNLQEYGIS | VIYADGSRVVYQEKVK | GFDAGTFDT | 0.21 / 0.57 / 0.18 / 0.93 / 1.05 / 0.23 | 0.53 | 1 of 18 (1.40)
GFNIDEYGIS | VIYADGKRSMYADKVK | GVDGDFMMD | n.d. / n.d. / n.d. / n.d. / n.d. / n.d. | n.d. | 0 of 18
GFSIDEYGIS | VIYADGLRQFYTNAVK | GMAAGTFDM | 0.09 / 0.29 / -0.42 / 0.52 / 0.09 / 0.79 | 0.22 | 1 of 18 (1.63)
GFDLQEYGIS | VIFADGLRSAYSDKVK | GQINGYFVD | n.d. / n.d. / n.d. / n.d. / n.d. / n.d. | n.d. | 0 of 18
GKEIEEYGIS | VIYADGMRQAYAESVK | GQVAGIGKF | n.d. / n.d. / n.d. / n.d. / n.d. / n.d. | n.d. | 0 of 18
GFDIDEFGIS | VIYADGKRTSYSDSVK | GQLGNAFDL | 2.20 / n.d. / n.d. / n.d. / n.d. / n.d. | 2.20 | 0 of 18
GFDLAEYGVS | VIYADGKRTAYSDHVK | GENGGFFDL | n.d. / n.d. / n.d. / n.d. / n.d. / n.d. | n.d. | 1 of 18 (1.96)
EFDLQEYGIS | VIYADGQRVAYKDNVK | GNGGVVFIA | n.d. / n.d. / n.d. / n.d. / n.d. / n.d. | n.d. | 0 of 18
GKDLDEYGIS | VIYADGMRTFYLNTVK | GEDGGDLNQ | n.d. / n.d. / n.d. / n.d. / n.d. / n.d. | n.d. | 0 of 18
GQDLMEYGIS | VIYADGTRTMYTNDVK | GHNGGQGKT | n.d. / n.d. / n.d. / n.d. / n.d. / n.d. | n.d. | 0 of 18
DFNLNEYGIS | VIYADGVRASYRNTVK | GQISGDFDL | n.d. / n.d. / n.d. / n.d. / n.d. / n.d. | n.d. | 0 of 18
GFILDEYGIS | VIYADGERTMYSNRVK | GNEGGTFDF | 0.68 / n.d. / n.d. / n.d. / n.d. / 0.64 | 0.66 | 0 of 18
GFNLDEIGIS | VIYADGRRTVYTDKVK | GANGVDIDV | n.d. / n.d. / n.d. / n.d. / n.d. / n.d. | n.d. | 0 of 18
GENLSEYGIS | VIYADGKKTAYSNAVK | GANGGIFVV | n.d. / n.d. / n.d. / n.d. / n.d. / n.d. | n.d. | 0 of 18
GFSLDEYGIS | VIYADGQRKHYADSVK | GQIDVYYTA | n.d. / n.d. / n.d. / n.d. / n.d. / n.d. | n.d. | 0 of 18
GFNLDEYGIS | VIYADGIRTVYADDVK | GGLKMHSLT | n.d. / n.d. / n.d. / n.d. / n.d. / n.d. | n.d. | 0 of 18
GFDLDEYGIS | VIYADGKRTAYQADVK | GVQGGNALV | n.d. / n.d. / n.d. / n.d. / n.d. / n.d. | n.d. | 0 of 18

Excerpt, the first 6 entries:

CDR-H1	CDR-H2	CDR-H3	log10 Kd, replicates	mean, log10 nM	signal with controls
GFNLDEYGIS	VIYADGGRVAYADNVK	GLVGKGGDL	2.63 / 1.27 / 1.50 / n.d. / 1.29 / 1.77	1.69	0 of 18
GFDLDEYGIS	VIYADGMRTAYQQKVK	GRETDTNVV	n.d. / n.d. / n.d. / n.d. / n.d. / n.d.	n.d.	1 of 18 (1.64)
GFDLQEIGIS	VIYADGTRQAYSEKVK	GQLAGFLVD	n.d. / n.d. / n.d. / n.d. / n.d. / n.d.	n.d.	0 of 18
GFNLDEVGIS	VIYADGSRVAYVDNVK	GTVDAVGFV	n.d. / n.d. / n.d. / n.d. / n.d. / n.d.	n.d.	0 of 18
GFDLDEYGVS	VIYADGERTFYQDKVK	GTHGGTRDL	1.57 / 2.53 / 2.05 / 2.94 / 2.12 / 2.60	2.30	0 of 18
GFSIDEYGIS	VIYADGVRQAYQDSVK	GQIGGTFNY	-0.43 / -0.41 / -0.29 / -0.32 / -0.51 / -0.23	-0.37	1 of 18 (2.21)

Source: Li et al. 2023 (doi:10.1038/s41467-023-39022-2), MIT Lincoln Laboratory and A-Alpha Bio; data file from the FLAb repository.